Tests used:
Cannabinoid receptor 2 [1] = target: Cannabinoid receptor 2 (Homo sapiens, UniProt P34972); assay: Displacement of [3H]CP-55940 from human recombinant cannabinoid CB2 receptor expressed in HEK293 cells; type: cell-based
Cannabinoid receptor 2 [2] = target: T1, Cannabinoid receptor 2 (Rattus norvegicus, UniProt Q9QZN9); assay: Binding affinity to rat spleen cannabinoid CB2 receptor; type: tissue-based
T1 sequence (Q9QZN9 whole entry): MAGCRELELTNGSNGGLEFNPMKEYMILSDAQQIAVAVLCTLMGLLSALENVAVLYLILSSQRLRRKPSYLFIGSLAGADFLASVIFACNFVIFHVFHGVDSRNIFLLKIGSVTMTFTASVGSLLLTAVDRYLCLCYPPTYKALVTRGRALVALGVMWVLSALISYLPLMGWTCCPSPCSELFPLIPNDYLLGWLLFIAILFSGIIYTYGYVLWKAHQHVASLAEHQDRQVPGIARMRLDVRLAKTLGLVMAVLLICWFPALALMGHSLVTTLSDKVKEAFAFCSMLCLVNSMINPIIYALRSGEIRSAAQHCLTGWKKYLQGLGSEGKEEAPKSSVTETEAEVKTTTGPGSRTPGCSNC

Sequences of proteins named here, by UniProt entry; tags and fusion partners are left off.
UniProt P34972, whole entry: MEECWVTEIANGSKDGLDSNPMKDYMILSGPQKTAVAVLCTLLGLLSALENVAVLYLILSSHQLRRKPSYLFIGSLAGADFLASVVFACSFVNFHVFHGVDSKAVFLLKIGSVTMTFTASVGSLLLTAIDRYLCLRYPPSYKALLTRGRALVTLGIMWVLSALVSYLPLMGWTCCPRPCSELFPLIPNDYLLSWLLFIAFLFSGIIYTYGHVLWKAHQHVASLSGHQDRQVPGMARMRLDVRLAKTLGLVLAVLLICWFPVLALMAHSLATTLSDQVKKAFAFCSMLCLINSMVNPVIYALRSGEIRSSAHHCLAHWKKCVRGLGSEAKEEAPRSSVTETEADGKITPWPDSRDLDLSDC

SMILES: Cc1c(C(=O)NN2CCOCC2)nn(-c2ccc(Cl)cc2Cl)c1-c1ccc(I)cc1
- Ki (Cannabinoid receptor 2 [1]): 4.87 µM
- Ki (Cannabinoid receptor 2 [2]): 4.2 µM

Reference: ChEMBL document CHEMBL1153953, “Synthesis and pharmacological evaluation of coumarin derivatives as cannabinoid receptor antagonists and inverse agonists” (Bioorg Med Chem, 2009)
